Reference: US9067894B1, “Compound, composition, and method of activating GIRK potassium channel and use of same for treating conditions of interest” (Vanderbilt University, priority 2013, dated 2015)
pEC50: −log10 of the molar value.

The chains behind the UniProt entries cited, without tags or fusion partners.
UniProt P48544, whole entry: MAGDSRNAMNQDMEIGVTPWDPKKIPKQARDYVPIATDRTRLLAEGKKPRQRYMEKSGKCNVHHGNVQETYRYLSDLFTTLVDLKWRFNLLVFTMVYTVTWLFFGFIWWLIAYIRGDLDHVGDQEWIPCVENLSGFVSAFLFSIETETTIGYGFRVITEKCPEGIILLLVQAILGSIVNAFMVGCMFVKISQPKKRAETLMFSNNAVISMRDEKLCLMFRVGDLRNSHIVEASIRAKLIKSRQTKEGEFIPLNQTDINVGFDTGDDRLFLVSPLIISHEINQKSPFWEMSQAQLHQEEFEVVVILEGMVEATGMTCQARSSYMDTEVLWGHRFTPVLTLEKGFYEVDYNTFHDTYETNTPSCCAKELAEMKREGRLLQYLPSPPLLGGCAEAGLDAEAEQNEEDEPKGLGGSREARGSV
UniProt P48549, whole entry: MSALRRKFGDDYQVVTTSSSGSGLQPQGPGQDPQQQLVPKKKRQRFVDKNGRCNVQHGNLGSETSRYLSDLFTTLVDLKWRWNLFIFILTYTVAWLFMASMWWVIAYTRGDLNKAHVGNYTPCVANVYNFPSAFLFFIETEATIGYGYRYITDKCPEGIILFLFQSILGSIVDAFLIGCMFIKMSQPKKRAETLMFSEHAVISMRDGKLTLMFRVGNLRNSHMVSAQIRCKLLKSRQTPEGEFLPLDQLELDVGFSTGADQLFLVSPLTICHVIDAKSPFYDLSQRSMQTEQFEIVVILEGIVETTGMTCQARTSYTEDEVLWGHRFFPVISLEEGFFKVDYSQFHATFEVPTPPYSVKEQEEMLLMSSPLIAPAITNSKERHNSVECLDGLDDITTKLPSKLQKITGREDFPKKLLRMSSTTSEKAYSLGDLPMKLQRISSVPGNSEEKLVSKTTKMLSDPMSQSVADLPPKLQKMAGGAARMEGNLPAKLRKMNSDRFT
UniProt P48051, whole entry: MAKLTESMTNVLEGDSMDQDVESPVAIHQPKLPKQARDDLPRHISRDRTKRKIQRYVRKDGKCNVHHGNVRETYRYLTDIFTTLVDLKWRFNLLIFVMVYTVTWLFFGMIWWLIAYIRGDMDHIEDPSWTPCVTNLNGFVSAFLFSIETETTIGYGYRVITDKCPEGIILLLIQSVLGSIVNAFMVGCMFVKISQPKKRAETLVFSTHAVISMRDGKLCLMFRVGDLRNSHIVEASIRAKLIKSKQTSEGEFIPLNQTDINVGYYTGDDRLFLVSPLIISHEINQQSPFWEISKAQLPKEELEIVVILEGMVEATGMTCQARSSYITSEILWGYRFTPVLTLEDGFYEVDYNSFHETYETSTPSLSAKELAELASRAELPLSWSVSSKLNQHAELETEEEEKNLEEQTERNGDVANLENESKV

Assays:
GIRK1/4 = GIRK1/4 (Homo sapiens, UniProt P48544+P48549); test: Thallium flux assay protocol (Examples 2 and 3), GIRK1/GIRK4 HEK-293 cells; format: cell-based
Experimental: Compounds were dissolved in DMSO, transferred to 384-well polypropylene plates, and serially diluted in DMSO using and Agilent Bravo (11-points, threefold dilutions). Serially diluted plates were dispensed to daughter plates using a Labcyte Echo555 and diluted to twofold over their target assay concentration with 20 mM HEPES-buffered (pH 7.4) Hanks Balanced Salt Solution (HBSS), hereafter referred to as Assay Buffer, using a Thermo Fisher Combi. Twenty-thousand HEK-293 cells/well stably transfected with the ion channel subunits of interest (e.g., GIRK1/GIRK2, GIRK1/GIRK4) were plated into 384-well, black-walled, clear-bottom, amine-coated coated plates in 20 LL/well alpha-minimal essential medium (MEM) supplemented with 10% (v/v) fetal bovine serum and incubated overnight in a 5% CO2 incubator at 37° C. Cell culture medium was removed from cell plates and replaced with 20 LL/well Assay Buffer. […] Fluorescence data were collected at 1 Hz. Data analysis: Waveform signals (fluorescence intensity vs time normalized by dividing each fluorescence value (F) by the initial fluorescence value for each trace (F0)) were reduced to single values by subtracting the average normalized waveform from vehicle control wells from each wave on the plate followed by obtaining the slope of the change in fluorescence immediately after the addition of the thallium stimulus. […]

GIRK1/2 = GIRK1/2 (Homo sapiens, UniProt P48051+P48549); test: Thallium flux assay protocol (Examples 2 and 3), GIRK1/GIRK2 HEK-293 cells; format: cell-based; conditions: read-out: GIRK1/2 EC50; Table 4, analogs 8; triplicate determinations

Question: For `O=C(Cc1ccccc1Cl)Nc1ccc(C(F)(F)F)cc1`, which “activity at GIRK1/4 (in words)” value (GIRK1/4) is on record?
Answer: selective, partial GIRK1/4 activators

Question: What about the “GIRK1/4 Efficacy” value (GIRK1/4; Table 4, standardized to efficacy of 2 = 100%) of the same molecule?
Answer: 20%

Question: What about the pEC50 (GIRK1/2) of the same molecule?
Answer: < 5.00
